# PMC8175350, “Drug repurposing screens identify chemical entities for the development of COVID-19 interventions” (Nature Communications, 2021)
# Assays:
# [1] = test system: HeLa-ACE2 cells; assay: Uninfected HeLa-ACE2 24 h live/dead cytotoxicity counter screen
# [2] = test system: Calu-3 cells; conditions: human
# [3] = test system: Calu-3 cells; assay: Uninfected Calu-3 48 h Cell-Titer Glo cytotoxicity counter screen; conditions: read-out: Calu-3 uninfected cytotoxicity CC50 GeoMean; unrounded geometric mean
substance,measurement,setting,value
Oligomycin A,HeLa-ACE2 uninfected cytotoxicity Sinf Average,"[1]; curve-fit effect at infinite concentration, average",-100%
same,CC50,"[1]; read-out: HeLa-ACE2 uninfected cytotoxicity CC50 GeoMean, unrounded geometric mean",> 36 µM
same,Calu-3 uninfected cytotoxicity Sinf Average,[2],-91%
same,CC50,[3],> 29.9 µM
